# Permeability data for macrocyclic peptides

Values of Kelly et al. 2021, doi:10.1021/jacs.0c06115, as listed in CycPeptMPDB.

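Conditions beyond the assay type are not listed; see the original paper. The list need not hold all peptides of the study. Peptides that the database sets to -10, its floor, are left out.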

PAMPA measures passive passage through an artificial lipid membrane. Values are log10 P with P in cm/s, so -5 is more permeable than -7.

CC(=O)N1CCC[C@H]1C(=O)N(C)[C@H](CC(C)C)C(=O)N[C@@H]1C(=O)N(C)[C@H](CC(C)C)C(=O)N[C@H](CC(C)C)C(=O)N[C@H](CC(C)C)C(=O)N[C@@H](C)C(=O)N[C@@H](CC(C)C)C(=O)N2CCC[C@H]2C(=O)O[C@@H]1C has PAMPA -6.39 (log10 cm/s).
CC(=O)N1CCC[C@H]1C(=O)N(C)[C@@H](CC(C)C)C(=O)N[C@@H]1C(=O)N[C@@H](CC(C)C)C(=O)N(C)[C@H](CC(C)C)C(=O)N(C)[C@H](CC(C)C)C(=O)N[C@H](C)C(=O)N[C@@H](CC(C)C)C(=O)N2CCC[C@@H]2C(=O)O[C@@H]1C has PAMPA -5.04 (log10 cm/s).
CC(=O)N1CCC[C@H]1C(=O)N(C)[C@@H](CC(C)C)C(=O)N[C@@H]1C(=O)N(C)[C@H](CC(C)C)C(=O)N(C)[C@@H](CC(C)C)C(=O)N(C)[C@H](CC(C)C)C(=O)N[C@@H](C)C(=O)N[C@@H](CC(C)C)C(=O)N2CCC[C@H]2C(=O)O[C@@H]1C has PAMPA -5.36 (log10 cm/s).
CC(=O)N1CCC[C@H]1C(=O)N(C)[C@H](CC(C)C)C(=O)N[C@@H]1C(=O)N[C@H](CC(C)C)C(=O)N[C@@H](CC(C)C)C(=O)N(C)[C@@H](CC(C)C)C(=O)N(C)[C@@H](C)C(=O)N[C@@H](CC(C)C)C(=O)N2CCC[C@@H]2C(=O)O[C@@H]1C has PAMPA -5.34 (log10 cm/s).
CC(=O)N1CCC[C@H]1C(=O)N(C)[C@@H](CC(C)C)C(=O)N[C@@H]1C(=O)N(C)[C@@H](CC(C)C)C(=O)N[C@H](CC(C)C)C(=O)N[C@H](CC(C)C)C(=O)N(C)[C@H](C)C(=O)N[C@H](CC(C)C)C(=O)N2CCC[C@H]2C(=O)O[C@@H]1C has PAMPA -6.14 (log10 cm/s).
CC(=O)N1CCC[C@H]1C(=O)N[C@@H]1C(=O)N(C)[C@H](CC(C)C)C(=O)N[C@H](CC(C)C)C(=O)N(C)[C@@H](CC(C)C)C(=O)N[C@H](CC(C)C)C(=O)N(C)[C@@H](C)C(=O)N[C@@H](CC(C)C)C(=O)N2CCC[C@@H]2C(=O)O[C@@H]1C has PAMPA -4.94 (log10 cm/s).
CC(=O)N1CCC[C@@H]1C(=O)N(C)[C@H](CC(C)C)C(=O)N[C@@H]1C(=O)N[C@H](CC(C)C)C(=O)N(C)[C@H](CC(C)C)C(=O)N(C)[C@H](CC(C)C)C(=O)N[C@@H](C)C(=O)N[C@@H](CC(C)C)C(=O)N2CCC[C@H]2C(=O)O[C@@H]1C has PAMPA -7.24 (log10 cm/s).
CC(=O)N1CCC[C@H]1C(=O)N(C)[C@H](CC(C)C)C(=O)N[C@@H]1C(=O)N(C)[C@H](CC(C)C)C(=O)N[C@H](CC(C)C)C(=O)N[C@H](CC(C)C)C(=O)N[C@H](C)C(=O)N[C@@H](CC(C)C)C(=O)N2CCC[C@H]2C(=O)O[C@@H]1C has PAMPA -5.85 (log10 cm/s).
CC(=O)N1CCC[C@@H]1C(=O)N(C)[C@H](CC(C)C)C(=O)N[C@@H]1C(=O)N[C@@H](CC(C)C)C(=O)N[C@H](CC(C)C)C(=O)N(C)[C@@H](CC(C)C)C(=O)N(C)[C@@H](C)C(=O)N[C@H](CC(C)C)C(=O)N2CCC[C@H]2C(=O)O[C@@H]1C has PAMPA -5.60 (log10 cm/s).
CC(=O)N1CCC[C@H]1C(=O)N(C)[C@@H](CC(C)C)C(=O)N[C@@H]1C(=O)N[C@H](CC(C)C)C(=O)N(C)[C@H](CC(C)C)C(=O)N[C@@H](CC(C)C)C(=O)N(C)[C@H](C)C(=O)N[C@H](CC(C)C)C(=O)N2CCC[C@H]2C(=O)O[C@@H]1C has PAMPA -5.21 (log10 cm/s).
CC(=O)N1CCC[C@H]1C(=O)N(C)[C@@H](CC(C)C)C(=O)N[C@@H]1C(=O)N[C@H](CC(C)C)C(=O)N(C)[C@@H](CC(C)C)C(=O)N(C)[C@H](CC(C)C)C(=O)N(C)[C@H](C)C(=O)N[C@@H](CC(C)C)C(=O)N2CCC[C@@H]2C(=O)O[C@@H]1C has PAMPA -5.20 (log10 cm/s).
CC(=O)N1CCC[C@H]1C(=O)N(C)[C@H](CC(C)C)C(=O)N[C@@H]1C(=O)N(C)[C@@H](CC(C)C)C(=O)N(C)[C@H](CC(C)C)C(=O)N(C)[C@H](CC(C)C)C(=O)N(C)[C@@H](C)C(=O)N[C@@H](CC(C)C)C(=O)N2CCC[C@@H]2C(=O)O[C@@H]1C has PAMPA -5.43 (log10 cm/s).
CC(=O)N1CCC[C@@H]1C(=O)N(C)[C@@H](CC(C)C)C(=O)N[C@@H]1C(=O)N[C@H](CC(C)C)C(=O)N[C@H](CC(C)C)C(=O)N[C@@H](CC(C)C)C(=O)N[C@@H](C)C(=O)N[C@@H](CC(C)C)C(=O)N2CCC[C@H]2C(=O)O[C@@H]1C has PAMPA -6.53 (log10 cm/s).
CC(=O)N1CCC[C@H]1C(=O)N(C)[C@H](CC(C)C)C(=O)N[C@@H]1C(=O)N(C)[C@@H](CC(C)C)C(=O)N(C)[C@@H](CC(C)C)C(=O)N[C@@H](CC(C)C)C(=O)N[C@@H](C)C(=O)N[C@H](CC(C)C)C(=O)N2CCC[C@@H]2C(=O)O[C@@H]1C has PAMPA -6.43 (log10 cm/s).
CC(=O)N1CCC[C@H]1C(=O)N[C@@H]1C(=O)N(C)[C@H](CC(C)C)C(=O)N[C@H](CC(C)C)C(=O)N(C)[C@H](CC(C)C)C(=O)N[C@H](CC(C)C)C(=O)N(C)[C@H](C)C(=O)N[C@@H](CC(C)C)C(=O)N2CCC[C@@H]2C(=O)O[C@@H]1C has PAMPA -5.79 (log10 cm/s).
CC(=O)N1CCC[C@H]1C(=O)N(C)[C@@H](CC(C)C)C(=O)N[C@@H]1C(=O)N[C@@H](CC(C)C)C(=O)N[C@@H](CC(C)C)C(=O)N(C)[C@H](CC(C)C)C(=O)N[C@H](C)C(=O)N[C@@H](CC(C)C)C(=O)N2CCC[C@H]2C(=O)O[C@@H]1C has PAMPA -5.98 (log10 cm/s).
CC(=O)N1CCC[C@@H]1C(=O)N(C)[C@H](CC(C)C)C(=O)N[C@@H]1C(=O)N[C@@H](CC(C)C)C(=O)N(C)[C@H](CC(C)C)C(=O)N[C@H](CC(C)C)C(=O)N(C)[C@H](C)C(=O)N[C@@H](CC(C)C)C(=O)N2CCC[C@H]2C(=O)O[C@@H]1C has PAMPA -6.73 (log10 cm/s).
CC(=O)N1CCC[C@@H]1C(=O)N(C)[C@H](CC(C)C)C(=O)N[C@@H]1C(=O)N[C@H](CC(C)C)C(=O)N[C@H](CC(C)C)C(=O)N(C)[C@@H](CC(C)C)C(=O)N(C)[C@@H](C)C(=O)N[C@H](CC(C)C)C(=O)N2CCC[C@@H]2C(=O)O[C@@H]1C has PAMPA -6.27 (log10 cm/s).
CC(=O)N1CCC[C@H]1C(=O)N(C)[C@@H](CC(C)C)C(=O)N[C@@H]1C(=O)N(C)[C@@H](CC(C)C)C(=O)N[C@H](CC(C)C)C(=O)N(C)[C@H](CC(C)C)C(=O)N[C@@H](C)C(=O)N[C@@H](CC(C)C)C(=O)N2CCC[C@H]2C(=O)O[C@@H]1C has PAMPA -6.23 (log10 cm/s).
CC(=O)N1CCC[C@H]1C(=O)N(C)[C@H](CC(C)C)C(=O)N[C@@H]1C(=O)N(C)[C@@H](CC(C)C)C(=O)N(C)[C@H](CC(C)C)C(=O)N(C)[C@@H](CC(C)C)C(=O)N(C)[C@@H](C)C(=O)N[C@@H](CC(C)C)C(=O)N2CCC[C@@H]2C(=O)O[C@@H]1C has PAMPA -5.29 (log10 cm/s).

The first 3 entries again:

For CC(=O)N1CCC[C@H]1C(=O)N(C)[C@H](CC(C)C)C(=O)N[C@@H]1C(=O)N(C)[C@H](CC(C)C)C(=O)N[C@H](CC(C)C)C(=O)N[C@H](CC(C)C)C(=O)N[C@@H](C)C(=O)N[C@@H](CC(C)C)C(=O)N2CCC[C@H]2C(=O)O[C@@H]1C the data give PAMPA -6.39 (log10 cm/s).
For CC(=O)N1CCC[C@H]1C(=O)N(C)[C@@H](CC(C)C)C(=O)N[C@@H]1C(=O)N[C@@H](CC(C)C)C(=O)N(C)[C@H](CC(C)C)C(=O)N(C)[C@H](CC(C)C)C(=O)N[C@H](C)C(=O)N[C@@H](CC(C)C)C(=O)N2CCC[C@@H]2C(=O)O[C@@H]1C the data give PAMPA -5.04 (log10 cm/s).
For CC(=O)N1CCC[C@H]1C(=O)N(C)[C@@H](CC(C)C)C(=O)N[C@@H]1C(=O)N(C)[C@H](CC(C)C)C(=O)N(C)[C@@H](CC(C)C)C(=O)N(C)[C@H](CC(C)C)C(=O)N[C@@H](C)C(=O)N[C@@H](CC(C)C)C(=O)N2CCC[C@H]2C(=O)O[C@@H]1C the data give PAMPA -5.36 (log10 cm/s).